Antibody variant affinities, Ab-14 heavy chain, assay B

The target is the same throughout: PDVDLGDISGINAS, from the HR2 region of SARS-CoV-2 spike.

Each scFv is VH, a 15-residue (Gly4Ser)3 linker, VL, as in the parent Ab-14, and differs from it in the CDRs of the heavy chain only.
VH: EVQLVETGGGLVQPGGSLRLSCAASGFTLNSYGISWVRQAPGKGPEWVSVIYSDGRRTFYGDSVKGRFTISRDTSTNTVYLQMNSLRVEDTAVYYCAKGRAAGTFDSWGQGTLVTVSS
VL: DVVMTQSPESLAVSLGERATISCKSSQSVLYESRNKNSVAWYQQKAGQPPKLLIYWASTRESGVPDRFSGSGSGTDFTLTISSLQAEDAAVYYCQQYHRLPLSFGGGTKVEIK

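Phage display of a naive human antibody library on the peptide gave the parent. Designed CDR sequences, proposed from the first random library and measured here. Their group label is 14H_En_Gen (En: ensemble of fine-tuned language models; Gen: genetic algorithm). Affinity was read by AlphaSeq, a pooled yeast mating assay with surface-displayed partners. After mating in shaken culture at 30 °C for 16 h, diploids were selected and their barcode pairs sequenced. The ratio of observed to expected reads was calibrated, replicate by replicate, on BCL2-family standards whose Kd was known from biolayer interferometry. Mating was done six times.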

Variants are written as CDR1, CDR2 and CDR3 of the heavy chain (limits as in the source). Parent: GFTLNSYGIS, VIYSDGRRTFYGDSVK, GRAAGTFDS.
Numbers give log10(Kd / nM), so 0 is 1 nM and 3 is 1 µM. Smaller is tighter.
A pair that was not seen in that replicate is written "nd"; this usually means weak binding, but a binder can also be missed.

CDR-H1	CDR-H2	CDR-H3	log10 Kd, replicates	signal with controls
GFDLEDYGIS	VIYADGMRTAYADDVK	GEVAGTFDV	0.18 / -0.12 / -0.16 / -0.07 / 0.13 / 0.31	0 of 18
GFDLNEYGIS	VIYADGMRTYYADSVK	GSNAGTFDI	-0.23 / 0.60 / -0.08 / -0.15 / -0.38 / 0.83	0 of 18
GFDLNEYGIS	VIYADGMRTAYIDSVK	GNNAGTFDM	-0.12 / -0.21 / -0.28 / -0.17 / -0.33 / -0.10	0 of 18
GFDLNEYGIS	VIYADGMRTAYADNVK	GNTAGTFDL	0.09 / 0.02 / -0.08 / 0.91 / -0.05 / 0.04	0 of 18
GFDLNEYGIS	VIYADGMRTAYIDSVK	GTNAGTFDV	1.61 / 0.81 / 1.00 / 1.29 / 0.83 / 0.86	0 of 18
GFDLDEYGIS	VIYADGQRTAYADKVK	GNNAGTFDV	0.00 / -0.42 / -0.11 / 0.47 / -0.34 / 0.26	0 of 18
GFDLNEYGIS	VIYADGLRTAYADSVK	GEVAGTFDL	-0.12 / -0.22 / -0.40 / -0.47 / -0.44 / 0.04	0 of 18
GFDLDEYGIS	VIYADGMRTAYADNVK	GNVAGTFDL	-0.66 / -0.97 / -0.73 / -0.74 / -0.89 / -0.82	0 of 18
GFDLNEYGIS	VIYADGMRTAYTDSVK	GNVAGTFDM	-0.64 / -0.15 / -0.52 / -0.73 / -0.57 / 0.23	1 of 18 (2.01)
GFDLDEYGIS	VIYADGVRQAYADSVK	GNVAGTFDV	-0.22 / -0.46 / -0.86 / -0.54 / -0.69 / 0.01	0 of 18
GFDLNEYGIS	VIYADGQRTYYADSVK	GTNAGTFDV	0.41 / -0.57 / -1.12 / -0.84 / -0.34 / -0.34	0 of 18
GFDLNEYGIS	VIYADGMRQAYADSVK	GNVAGTFDT	-0.39 / -0.23 / -0.18 / -0.65 / -0.53 / 0.08	0 of 18
GFDLDEYGIS	VIYADGMRTFYADDVK	GENAGTFDV	-0.14 / -0.32 / 0.11 / -0.41 / -0.35 / -0.15	1 of 18 (1.49)
GFDLNEYGIS	VIYADGMRTAYADDVK	GNVAGTFDI	-0.70 / -0.48 / -1.00 / -0.69 / -1.70 / -0.68	0 of 18
GFDLNEYGIS	VIYADGSRTAYADSVK	GSNAGTFDI	nd / 0.93 / nd / 1.07 / nd / 3.17	0 of 18
GFDLDEYGIS	VIYADGMRTAYSDKVK	GENAGTFDV	-0.02 / 0.25 / -0.34 / -0.38 / -0.82 / -0.32	0 of 18
GFDLNEYGIS	VIYADGMRTAYSDSVK	GENAGTFVL	1.06 / 1.57 / 1.19 / 1.39 / 0.64 / 1.31	0 of 18
GFDLDEYGIS	VIYADGMRTAYADNVK	GEVAGTFDL	-0.47 / -0.40 / -0.20 / -0.36 / -0.66 / -0.65	1 of 18 (1.61)
GFDLEDYGIS	VIYADGMRTAYSDSVK	GNVAGTFDL	0.04 / -0.30 / -0.44 / -0.62 / -0.80 / -0.21	0 of 18
GFDLDEYGIS	VIYADGKRTAYSDSVK	GQNAGTFDI	-0.05 / -0.04 / -0.73 / -0.86 / -0.60 / -0.34	0 of 18
GFDLNEYGIS	VIYADGMRTAYVDSVK	GENAGTFDL	0.13 / -0.26 / -0.44 / -0.65 / -0.41 / -0.29	0 of 18
GFDLNEYGIS	VIYADGVRKAYSDSVK	GNVAGTFDV	-0.46 / -0.93 / -1.06 / -1.12 / -0.70 / -0.49	1 of 18 (1.85)
GFDLNEYGIS	VIYADGMRTAYSDSVK	GEVAGTFDI	-0.08 / 0.33 / 0.35 / -0.47 / -0.71 / -0.18	0 of 18
GFDLNEYGIS	VIYADGMRTFYADSVK	GTNAGTFDV	-0.25 / -0.20 / -0.58 / -0.49 / 0.11 / -0.17	0 of 18
GFDLNEYGIS	VIYADGMRTAYANSVK	GNVAGTFDL	0.19 / -0.27 / -0.82 / -0.43 / -0.32 / -0.56	0 of 18
GFDLNEYGIS	VIYADGVRTAYVDSVK	GNQAGTFDL	-0.05 / 0.13 / -0.18 / 0.01 / -0.21 / 0.03	0 of 18
GFDLNEYGIS	VIYADGVRTYYADSVK	GNVAGTFDI	-0.69 / -1.22 / -1.05 / -1.00 / -1.21 / -0.54	0 of 18
GFDLDEYGIS	VIYADGQRTAYADSVK	GNQAGTFDQ	0.58 / 0.63 / 0.23 / 0.15 / 0.41 / 0.56	0 of 18
GFDLNEYGIS	VIYADGMRQAYADSVK	GEVAGTFDV	-0.61 / -0.86 / -0.94 / -1.17 / -0.76 / -0.26	0 of 18
GFDLNEYGIS	VIYADGMRTAYADSVK	GANAGTFDI	-0.17 / -0.25 / -0.06 / -0.35 / 0.02 / -0.03	0 of 18
GFDLDEYGIS	VIYADGMRTAYADDVK	GSNAGTFDV	0.03 / -0.32 / -0.50 / -0.20 / -0.33 / -0.48	0 of 18
GFDLNEYGIS	VIYADGVRKAYSDSVK	GENAGTFDV	-0.87 / -1.29 / -0.68 / -1.13 / -0.58 / -0.55	0 of 18

Picked from the list: the 4 lowest averages where every replicate gave a value.

CDR-H1	CDR-H2	CDR-H3	log10 Kd, replicates	signal with controls
GFDLNEYGIS	VIYADGVRTYYADSVK	GNVAGTFDI	-0.69 / -1.22 / -1.05 / -1.00 / -1.21 / -0.54	0 of 18
GFDLNEYGIS	VIYADGMRTAYADDVK	GNVAGTFDI	-0.70 / -0.48 / -1.00 / -0.69 / -1.70 / -0.68	0 of 18
GFDLNEYGIS	VIYADGVRKAYSDSVK	GENAGTFDV	-0.87 / -1.29 / -0.68 / -1.13 / -0.58 / -0.55	0 of 18
GFDLDEYGIS	VIYADGMRTAYADNVK	GNVAGTFDL	-0.66 / -0.97 / -0.73 / -0.74 / -0.89 / -0.82	0 of 18

The parent sequence was in this pool as ten entries: three were never detected, three once, and four in most replicates, with averages from 0.34 to 2.37.
A sequence measured in both rounds can read differently, since the two assays cover different ranges.
Background: pairings of all heavy chain designs with three empty control strains gave a value in 1% of cases (median 2.08, 5th percentile 0.84). Values in that range, when seen in few replicates, are hard to tell from nonspecific mating. Also given: how often the same scFv was detected with the empty control strains, with their mean in brackets.
In the paper, a design with two or fewer of six values counts as a poor binder.

Source: Li et al. 2023 (doi:10.1038/s41467-023-39022-2), MIT Lincoln Laboratory and A-Alpha Bio; data file from the FLAb repository.